Reference: patent US9149540B2, “Polymer conjugate of folic acid or folic acid derivative” (Nippon Kayaku Kabushiki Kaisha, priority 2008, dated 2015)

Details: PBS solution, 37° C., absence of hydrolase; FIG. 1

## PEG-Asp40(α,γ-Tyramine-PEM)-Ac [PEM_G-40]
  drug release rate: the release rate is intermediate between the rate of the α-substituted form and the rate of the γ-substituted form
